For one experiment, the system named is MIA PaCa-2 cells. Briefly: In-vitro anti-proliferative activity in combination with gemcitabine on MIA PaCa-2 cells. Type of experiment: cell-based. To be noted: read-out: in combination with 20 nM GMC IC50, 72 h, with 20 nM gemcitabine.
Experiment [1] deals with recombinant protein Wee-1 (Homo sapiens (Human), UniProt P30291). In words: HTRF assay for inhibiting enzymatic activity of recombinant protein Wee-1. The experiment is classed as biochemical. To be noted: read-out: (IC50) Inhibitory activity against recombinant protein Wee-1, compounds up to 200 nM.

Sequences of proteins named here, by UniProt entry; tags and fusion partners are left off.
UniProt P30291, whole entry: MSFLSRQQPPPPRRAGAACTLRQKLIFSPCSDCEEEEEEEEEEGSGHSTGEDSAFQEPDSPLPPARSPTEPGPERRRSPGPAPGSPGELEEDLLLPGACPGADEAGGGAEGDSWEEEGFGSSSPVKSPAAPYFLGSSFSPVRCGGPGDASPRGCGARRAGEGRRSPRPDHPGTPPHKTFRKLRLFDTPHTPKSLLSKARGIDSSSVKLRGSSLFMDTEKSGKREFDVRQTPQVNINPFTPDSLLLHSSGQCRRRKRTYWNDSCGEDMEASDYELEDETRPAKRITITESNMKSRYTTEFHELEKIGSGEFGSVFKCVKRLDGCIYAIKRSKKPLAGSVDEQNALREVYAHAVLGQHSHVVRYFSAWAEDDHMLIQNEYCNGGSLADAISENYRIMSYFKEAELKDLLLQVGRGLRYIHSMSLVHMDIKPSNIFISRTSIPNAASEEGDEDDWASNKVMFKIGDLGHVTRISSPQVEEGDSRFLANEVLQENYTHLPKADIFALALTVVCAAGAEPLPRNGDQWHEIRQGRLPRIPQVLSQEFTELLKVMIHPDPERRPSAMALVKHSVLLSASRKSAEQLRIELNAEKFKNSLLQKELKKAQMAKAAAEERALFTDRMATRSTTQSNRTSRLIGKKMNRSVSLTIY

In patent publication US20240158369A1, “PYRIMIDINE COMPOUND AS WEE-1 INHIBITOR” (WIGEN BIOMEDICINE TECHNOLOGY (SHANGHAI) CO., LTD., priority 2021, published 2024) one finds IC50 data, which are given here for two compounds.

pIC50: −log10 of the molar value.

Consider `CN1CCc2c(CCCO)cc(Nc3ncc(C#N)c(Nc4cccc(N=S(C)(C)=O)n4)n3)cc2C1`, for which the negative logarithm of the IC50 (pIC50) with MIA PaCa-2 cells was 8.96; in experiment [1], above 8.00.
For the compound `CC(C)N1CCc2ccc(Nc3ncc(C#N)c(Nc4cccc(N=S(C)(C)=O)n4)n3)cc2C1`, the pIC50 in experiment [1] was above 8.00.
